The test system of the experiment is ADAR1 KO FLAG-ZBP1 MEFs. Kind of experiment: Cytokine-induced ZBP1-dependent cell death in ADAR1-deficient MEFs. Type of experiment: cell-based, murine. How it is done: FIG. 2 (Panel d) depicts Zbp1^−/− MEFs expressing FLAG-ZBP1 in which ADAR1 was present (ADAT WT) or ablated by CSISPR/Cas9 (ADAR KO) treated with indicated cytokines (100 ng/mL) and cell viability determined at 48 hours post treatment.
FIG. 2 (Panel e) depicts MEFs produced as in FIG. 2 (Panel d) treated with IFNβ or IFNγ (100 ng/mL) in the presence or absence of zVAD (50 mM) plus GSK'843 (5 mM) and viability examined at 48 hours post exposure.
Immortalized Zbp1^−/− stably reconstituted with FLAG-ZBP1 MEFs were transiently transfected with TrueGuide Synthetic sgRNA against mouse Adar1 (ThermoFisher Scientific, CRISPR162007 SGM) and TrueCut Cas9 Protein (ThermoFisher Scientific, A36499) by Lipofectamine CRISPRMAX Cas9 Transfection Reagent (ThermoFisher Scientific, CMAX00008). After two days, cells were harvest and examined ADAR1 protein level by western blot.
To explore this possibility, we generated immortalized Zbp1^−/− MEFs stably expressing either FLAG-tagged wild-type murine ZBP1 or an empty vector control, ablated ADAR1 in these cells, and observed them over a 12-day period. […] In contrast, Zbp1^−/− MEFs carrying an empty vector underwent growth arrest by day 7, but remained viable for the duration of the study (see, FIG. 2, Panel a). Exposing ADAR1 KO cells to recombinant IFNβ triggered ZBP1-dependent cell death within 48 hours of treatment (see, FIG. 2, Panel b and Panel c). […] Thus, Z-RNA sequences within the 3′UTRs of ISG mRNAs are bona fide ligands for ZBP1 activation in ADAR1-deficient cells (see, FIG. 2, Panel h). Following activation, ZBP1 complexed with RIPK3 and MLKL, and induced phosphorylation of MLKL in IFN-treated ADAR1 KO cells (see, FIG. 2, Panel i). […] Phosphorylated MLKL was first seen in the nucleus, before migrating to the cytosol and the plasma membrane (see, FIG. 2, Panel j and Panel k). […] Rupture was first seen ˜24 hours post IFNβ exposure in ADAR1 KO FLAG-ZBP1 MEFs, shortly before loss of viability (see, FIG. 7, Panel e). […] ZBP1-driven necroptosis is thus a heretofore unappreciated arm of the innate immune response to endogenous dsRNA.

These results are taken from US20260000643A1, “Combination Of Curaxins And Immune Checkpoint Inhibitors For Treating Cancer” (Institute For Cancer Research d/b/a The Research Institute …, priority 2022, published 2026).

B1: IFNβ: recombinant type I interferon cytokine (protein, UniProt P01574 22-187, looked up)
Interferon beta: MSYNLLGFLQRSSNFQCQKLLWQLNGRLEYCLKDRMNFDIPEEIKQLQQFQKEDAALTIYEMLQNIFAIFRQDSSSTGWNETIVENLLANVYHQINHLKTVLEEKLEKEDFTRGKLMSSLHLKRYYGRILHYLKAKEYSHCAWTIVRVEILRNFYFINRLTGYLRN
On to B1, for which the “Time of first nuclear envelope rupture” value (ADAR1 KO FLAG-ZBP1 MEFs, post IFNβ exposure) is around 24 h. Besides, the “Time to ZBP1-dependent cell death” value (ADAR1 KO cells, recombinant IFNβ) was at most 48 h. The “ZBP1-dependent cell death in ADAR1-deficient MEFs” value (cytokines 100 ng/mL, viability at 48 hours) was “induced ZBP1-dependent cell death”. Also, the “MEFs with detectable rupture of the nuclear envelope” value (immortalized MEFs, 48 hours post IFNβ treatment) is around 30%.
